Measurements from US9249087B2, “HDAC inhibitors and therapeutic methods using the same” (THE BOARD OF TRUSTEES OF THE UNIVERSITY OF ILLINOIS, priority 2011, dated 2016).

Sequences of proteins named here, by UniProt entry; tags and fusion partners are left off.
UniProt Q9UBN7, whole entry: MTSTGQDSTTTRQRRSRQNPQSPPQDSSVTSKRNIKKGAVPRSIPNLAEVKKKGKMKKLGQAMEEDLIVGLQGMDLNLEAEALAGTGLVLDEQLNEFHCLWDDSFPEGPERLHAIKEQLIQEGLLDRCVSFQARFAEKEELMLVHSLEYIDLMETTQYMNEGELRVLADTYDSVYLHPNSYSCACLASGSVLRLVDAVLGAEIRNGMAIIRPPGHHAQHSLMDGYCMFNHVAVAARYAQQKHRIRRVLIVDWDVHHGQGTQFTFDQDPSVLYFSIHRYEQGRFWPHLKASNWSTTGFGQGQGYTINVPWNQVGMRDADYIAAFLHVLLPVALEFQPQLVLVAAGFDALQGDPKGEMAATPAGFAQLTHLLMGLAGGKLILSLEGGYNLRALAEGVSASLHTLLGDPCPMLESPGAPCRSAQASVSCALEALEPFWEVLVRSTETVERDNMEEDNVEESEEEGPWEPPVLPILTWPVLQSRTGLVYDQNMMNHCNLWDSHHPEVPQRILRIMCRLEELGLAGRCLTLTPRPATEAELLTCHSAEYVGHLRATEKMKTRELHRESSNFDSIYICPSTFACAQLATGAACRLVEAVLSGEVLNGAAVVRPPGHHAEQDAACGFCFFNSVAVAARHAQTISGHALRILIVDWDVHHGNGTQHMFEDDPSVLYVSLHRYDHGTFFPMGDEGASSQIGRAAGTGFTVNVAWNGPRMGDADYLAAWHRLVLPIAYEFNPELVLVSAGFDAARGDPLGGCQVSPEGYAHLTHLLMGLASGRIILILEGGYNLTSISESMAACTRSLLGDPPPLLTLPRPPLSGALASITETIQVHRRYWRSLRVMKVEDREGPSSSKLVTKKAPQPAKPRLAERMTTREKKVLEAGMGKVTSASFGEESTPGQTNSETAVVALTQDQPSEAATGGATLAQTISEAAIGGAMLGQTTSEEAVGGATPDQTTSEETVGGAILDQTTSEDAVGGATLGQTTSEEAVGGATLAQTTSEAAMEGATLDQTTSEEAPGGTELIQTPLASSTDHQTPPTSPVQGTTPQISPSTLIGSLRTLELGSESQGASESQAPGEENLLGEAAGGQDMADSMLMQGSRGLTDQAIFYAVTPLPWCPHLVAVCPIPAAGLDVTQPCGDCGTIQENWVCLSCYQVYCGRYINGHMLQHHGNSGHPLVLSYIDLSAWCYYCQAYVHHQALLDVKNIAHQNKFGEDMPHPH

Molecular target: Human HDAC6 (Homo sapiens (Human), UniProt Q9UBN7)
Experiment: HDAC6 fluorogenic peptide deacetylation inhibition assay
Assay type: biochemical
Conditions: ratio HDAC1 IC50/HDAC6 IC50

| HDAC6 Selectivity (HDAC1/HDAC6) (tested form: TFA) | HDAC6 Selectivity (HDAC1/HDAC6) | Compound |
| --- | --- | --- |
| 186 | – | COC[C@@H]1CCCN1Cc1ccc(C(=O)NO)cc1 [Compound 59, (S)-N-Hydroxy-4-((2-(methoxymethyl)pyrrolidin-1-yl)methyl)benzamide.TFA] |
| > 24 | – | COC[C@H]1CCCN1Cc1ccc(C(=O)NO)cc1 [Compound 61] |
| – | 192 | CC(C)N(Cc1ccc(C(=O)NO)cc1)C(C)C [Compound 53, 4-((Diisopropylamino)methyl)-N-hydroxybenzamide] |

Where a name gives a salt, the structure may show the parent alone.
